Results reported in patent publication US20010055590A1, “Method for enhancing myoblast migration and invasion in the context of gene therapy” (priority 1999, published 2001).
“Also recorded” adds a separate entry of the source.

Key:
Type in all cases: cell-based
[1] = system: mouse myoblasts; assay: In vitro mouse myoblast migration assay (gelatin-coated membrane); details: 12 hours; stimulant in bottom chamber
Description: (§1) Mouse myoblasts were previously isolated from hind limb muscles of 4-6 week old severe combined immunodeficient (SCID) mice and clonally purified from contaminating fibroblasts (Yao et al. “Primary myoblast-mediated gene: transfer: persistent expression of human factor IX in mice” Gene Therapy 1:99-107, 1994). Myoblasts (approximately 1×10^6 cells) were plated on 6 cm tissue culture plates coated with 0.5% gelatin (Sigma, St. Louis, Mo.) and grown in growth medium consisting of Dulbecco's Modified Eagle Medium (DMEM) (Gibco BRL, Gaithersburg Md.) supplemented with 20% fetal bovine serum (FBS; Gibco) and 0.5% chick embryo extract (CEE; Gibco). All animal studies were carried out following the institutional guidelines for ethical animal use. Human myoblasts were isolated using trypsin digestion from abdominal wall or chest wall muscle biopsies, and surgery. […] Myoblast migration and invasion were examined using a commercially available in vitro cell migration and invasion assay kit (Biocoat, Becton Dickinson, Franklin Lakes, N.J.) as described by Albini et al. (A rapid in vitro assay for quantitating the invasive potential of tumor cells Cancer Res 47:3239-3245, 1987). […] The number of cells per field was counted in 10 randomly selected fields and averaged for each condition. […]

[2] = system: mouse myoblasts; assay: In vitro mouse myoblast invasion assay across Matrigel barrier; details: 24 hours
Description: as §1

[3] = system: MMP-2; assay: Gelatin zymography of mouse myoblast culture medium, MMP-2; details: mouse myoblasts treated 24 hours
Description: (§2) Gelatin zymography for assaying MMPs was carried out as previously described (Guerin and Holland “Synthesis and secretion of matrix-degrading metalloproteinases by human skeletal muscle satellite cells” Devel. Dynamics 202:91-99,1995) with minor modifications. Briefly, myoblasts were grown in 6 cm tissue culture plates to approximately 70% confluence, then rinsed three times with serumfree DMEM and incubated for 3 hours in DMEM containing 0.2% BSA to eliminate the effects of serum. Growth factors were added and cells were incubated for 24 hours. Culture medium was then collected, centrifuged to pellet detached cells, and concentrated ten-to twenty-fold using the Centricon-10 (Amicon, Beverly, Mass.) system. The protein concentration of the supernatants was determined using the Bio-Rad protein microassay system with BSA used as the standard. Samples were stored at −70° C. until use. For gelatin zymography, aliquots (10 μg as the total protein per sample) were electrophoresed at constant voltage on a 10% polyacrylamide gel containing 2 mg/ml gelatin. […] Proteinase activity was quantified by densitometric scanning of bands using a Bio-Rad Gel Doc 1000 video camera imaging system (Bio Rad, Hercules, Calif.). […]

[4] = system: MMP-9; assay: Gelatin zymography of mouse myoblast culture medium, MMP-9
Description: as §2

[5] = system: MMP-9; assay: Gelatin zymography of human myoblasts, MMP-9
Description: as §2

recombinant human tumor necrosis factor-α [TNF-α]
effect on mouse myoblast migration [1]: stimulated migration of mouse myoblasts to various degrees; also recorded: marginal effects | effect on mouse myoblast Matrigel invasion [2]: marginal effects | effect on MMP-2 expression [3]: only negligibly increased MMP-2 expression | effect on MMP-9 expression ([4]; mouse myoblasts): can strongly induce MMP-9 expression | MMP-9 expression (110 kDa band) over the DMEM control level ([4]; mouse myoblasts treated 24 hours): approximately 30 fold | effect on MMP-9 expression (92 kDa band) [5]: only marginal increases in MMP-9 expression
